In patent publication US20130310344A1, “N-ACYLSULFONAMIDE APOPTOSIS PROMOTERS” (ASTRAZENECA AB, priority 2010, published 2013):
Structures can show the parent of a compound that is named as a salt.

Sequences of proteins named here, by UniProt entry; tags and fusion partners are left off. Residues count along the entry.
UniProt P10415, 1-204: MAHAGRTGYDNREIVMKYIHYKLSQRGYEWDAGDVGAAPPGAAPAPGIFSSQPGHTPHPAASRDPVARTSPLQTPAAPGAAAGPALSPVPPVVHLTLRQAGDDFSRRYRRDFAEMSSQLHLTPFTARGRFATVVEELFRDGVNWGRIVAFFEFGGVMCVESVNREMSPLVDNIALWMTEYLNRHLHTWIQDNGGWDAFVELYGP
UniProt Q07817, 1-209: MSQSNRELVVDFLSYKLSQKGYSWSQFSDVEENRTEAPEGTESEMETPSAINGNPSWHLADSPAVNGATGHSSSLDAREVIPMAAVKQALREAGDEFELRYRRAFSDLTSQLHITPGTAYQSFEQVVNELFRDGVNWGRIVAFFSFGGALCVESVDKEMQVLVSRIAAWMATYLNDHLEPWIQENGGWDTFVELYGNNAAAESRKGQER

Legend:
[1] = target: T1, Bcl-2 (Homo sapiens, UniProt P10415); experiment: Bcl-2 FP assay (competitive fluorescence polarization binding assay, FITC-Bim BH-3 peptide tracer); details: c-terminal 6×HIS tagged Bcl-2 (aa 1-204), 1.3 nM; 2 nM FITC-Bim peptide tracer
T1 construct: a c-terminal 6×HIS tagged Bcl-2 (aa 1-204); 6xHis (C)
Excerpt: (§1) Bcl-xL and Bcl-2 FP binding affinity of compound(s) of Formulae (I), (I-a), (I-b), (I-c), (I-d) and/or (I-e) may be determined using a variety of known methods. One such assay is a sensitive and quantitative in vitro binding assay using fluorescence polarization (“FP”) described by Wang, J.-L.; Zhang, Z-J.; Choksi, S.; Sjam. S.; Lu, Z.; Croce, C. M.; Alnemri, E. S.; Komgold, R.; Huang, Z. Cell permeable Bcl-2 binding peptides: a chemical approach to apoptosis induction in tumor cells. Cancer Res. 2000, 60, 1498-1502).
(§2) Additionally, the binding affinity of compound(s) of Formulae (I), (I-a), (I-b), (I-c), (I-d) and/or (I-e) to Bcl-2 protein in vitro was determined by a competitive binding assay based on fluorescence polarization. For example, fluorescence polarization (“FP”) assays may be developed using a c-terminal 6×HIS tagged Bcl-2 (aa 1-204) and a C-terminal 6×HIS tagged Bcl-XL (aa 1-209). The tracer may be a synthetic peptide BH-3 peptide Bim conjugated to Fluorescein isothiocyanate (FITC—[…]). Dilutions of either Bcl-2 (1.3 nM) or Bcl-XL (0.8 nM) may be added to serial dilutions of antagonist and incubated for one hour prior to the addition of 2 nM of fluorescent peptide tracer (Anaspec, Fremont, Calif.) in the assay buffer. Final assay buffer conditions may be 20 mM HEPES, pH 7.5, 1 mM DTT, 0.005% Tween-20 and 50 mM NaCl. Samples may be read after 20-minute incubation. Fluorescence polarization values may be plotted as a function of the antagonist concentration.
(§3) When tested in an FP assay based on the FP assay described above, the inhibitory activity of the following examples were measured at the IC50s (μM) shown in Table 1.

[2] = target: T2, Bcl-XL (Homo sapiens, UniProt Q07817); experiment: Bcl-XL FP assay (competitive fluorescence polarization binding assay, FITC-Bim BH-3 peptide tracer); details: C-terminal 6×HIS tagged Bcl-XL (aa 1-209), 0.8 nM; 2 nM FITC-Bim peptide tracer
T2 construct: a C-terminal 6×HIS tagged Bcl-XL (aa 1-209); 6xHis (C)
Excerpt: as §1, §2, §3

CCN(CC)CC1CN(CC[C@H](CSc2ccccc2)Nc2ccc(S(=O)(=O)NC(=O)c3ccc(N4CCC([C@@H](O)c5ccccc5-c5ccc(Cl)cc5)CC4)cc3)cc2S(=O)(=O)C(F)(F)F)CCO1 (single isomer, unassigned) [Example 26]
IC50 [1]: 0.4 nM
IC50 [2]: 0.5 nM

N#C[C@@H](c1ccccc1-c1ccc(Cl)cc1)C1CCN(c2ccc(C(=O)NS(=O)(=O)c3ccc(N[C@H](CCN4CCOCC4)CSc4ccccc4)c(S(=O)(=O)C(F)(F)F)c3)cc2)CC1 [Example 18, 4-(4-((R)-(4′-chlorobiphenyl-2-yl)(cyano)methyl)piperidin-1-yl)-N-(4-((R)-4-morpholino-1-(phenylthio)butan-2-ylamino)-3-(trifluoromethylsulfonyl)phenylsulfonyl)benzamide]
IC50 [1]: 7 nM
IC50 [2]: 2 nM

O=C(NS(=O)(=O)c1ccc(N[C@H](CCN2CCOC[C@H]2CO)CSc2ccccc2)c(S(=O)(=O)C(F)(F)F)c1)c1ccc(N2CCC([C@@H](O)c3ccccc3-c3ccc(Cl)cc3)CC2)cc1 [Example 24, 4-(4-((R)-(4′-chlorobiphenyl-2-yl)(hydroxy)methyl)piperidin-1-yl)-N-(4-((R)-4-((R)-3-(hydroxymethyl)morpholino)-1-(phenylthio)butan-2-ylamino)-3-(trifluoromethylsulfonyl)phenylsulfonyl)benzamide, formic acid salt]
IC50 [2]: 2 nM

O=C(NS(=O)(=O)c1ccc(N[C@H](CCN2CCOC[C@@H]2CO)CSc2ccccc2)c(S(=O)(=O)C(F)(F)F)c1)c1ccc(N2CCC([C@@H](O)c3ccccc3-c3ccc(Cl)cc3)CC2)cc1 [Example 25, 4-(4-((R)-(4′-chlorobiphenyl-2-yl)(hydroxy)methyl)piperidin-1-yl)-N-(4-((R)-4-((S)-3-(hydroxymethyl)morpholino)-1-(phenylthio)butan-2-ylamino)-3-(trifluoromethylsulfonyl)phenylsulfonyl)benzamide, hydrochloride salt]
IC50 [2]: 2 nM

N#C[C@H](c1ccccc1-c1ccc(Cl)cc1)C1CCN(c2ccc(C(=O)NS(=O)(=O)c3ccc(N[C@H](CCN4CCOCC4)CSc4ccccc4)c(S(=O)(=O)C(F)(F)F)c3)cc2)CC1 [Example 19, 4-(4-((S)-(4′-chlorobiphenyl-2-yl)(cyano)methyl)piperidin-1-yl)-N-(4-((R)-4-morpholino-1-(phenylthio)butan-2-ylamino)-3-(trifluoromethylsulfonyl)phenylsulfonyl)benzamide]
IC50 [1]: 1200 nM
IC50 [2]: 8 nM
